Patent US11505521B2, “Crystalline epinephrine malonate salt” (Biothea Pharma, Inc., priority 2018, dated 2022)

Settings: 20 mg in 20 mL water, 25° C.
Method: The tests were conducted using Sartorius balances (Model SQP) and a pH meter (Brand: INESA, Model No. PHS-3E). 20 mg of the sample was weighed and transferred into a 20 mL volumetric flask with the remainder of the volume comprising water. The solution was mixed. The pH meter was calibrated with pH 4.0 and pH 6.8 standard buffer solutions at 25° C.

**Q.** With `CNC[C@H](O)c1ccc(O)c(O)c1` [epinephrine malonate] as the compound, how does the pH read?
**A.** 4.34
